One data set deals with T1, apoE4 (Homo sapiens, UniProt P02649, C130R).
T1 construct: made in house; host or cells: primary forebrain astrocytes of GFAP-human apoE4 transgenic mice
Description: Toxicity rescue: neutralizing apoE4's effect on Aβ1-42 neurotoxicity, MTT assay in SK-N-SH cells. The conditions noted are these: Aβ1-42 100 μmol/L, apoE4 0.5 μmol/L preincubated with 0.5 μmol/L peptide; two day p<0.05, 6 day p<0.01. The class given is cell-based. How it is done: (§1) In toxicity rescue experiments, Aβ12-28 or Aβ12-28P were used to neutralize apoE4's effect on Aβ1-42 neurotoxicity. Aβ12-28 or Aβ12-28P were preincubated with apoE4 in an equimolar concentration for 6 h at 37° C., then mixed with Aβ1-42, followed by addition to microtiter plates containing cells prepared as described above. The obtained results were compared to the viability of cells incubated with Aβ1-42 alone and Aβ1-42 with apoE4. Cells incubated with apoE alone, Aβ1-42+Aβ12-28 and Aβ1-42+Aβ12-28P, were used as additional controls. The final concentration of peptides was as follows: Aβ1-42 100 μmol/L, Aβ12-28 and Aβ12-28P 0.5 μmol/L, and apoE4 0.5 μmol/L. Two- and six-day experiments were performed and cell viability was assessed using the MTT assay. All experiments were run in triplicate. The results from cell culture neurotoxicity studies were evaluated by one-way analysis of variance, followed by a Dunnett's test as a post hoc analysis.
(§2) The viability of SK-N-SH cells incubated in the presence of apoE4 alone (0.5 μmol/L) was not reduced compared to the control group (only vehicle added).

Sequences of proteins named here, by UniProt entry; tags and fusion partners are left off. Residues count along the entry.
UniProt P02649, 19-317 C130R: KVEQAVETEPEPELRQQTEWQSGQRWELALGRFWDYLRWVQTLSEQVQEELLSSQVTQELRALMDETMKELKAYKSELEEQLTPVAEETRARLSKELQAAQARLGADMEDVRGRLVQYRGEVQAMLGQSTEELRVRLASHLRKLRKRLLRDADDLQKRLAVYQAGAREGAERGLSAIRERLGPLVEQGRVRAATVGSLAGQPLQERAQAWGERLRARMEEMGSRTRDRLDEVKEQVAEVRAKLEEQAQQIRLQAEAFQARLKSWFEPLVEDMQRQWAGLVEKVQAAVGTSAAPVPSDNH

The format of data set [1] is physicochemical. The text has this:
Circular dichroism (“CD”) was used to study the secondary structure of peptides in solution as described previously (Golabek et al., “The Interaction Between Apolipoprotein E and Alzheimer's Amyloid β-peptide is Dependent on β-peptide Conformation,” J. Biol. Chem. 271:10602-10606 (1996); Soto et al., “Alzheimer's Soluble β-amyloid is Conformationally Modified by Apolipoproteins in vitro,” Neuroreport 7:721-725 (1996); which are hereby incorporated by reference in their entirety). Aliquots of HFIP treated peptides were diluted in 5 mmol/L Tris buffer (pH 7.0) to obtain a peptide concentration of 100 μmol/L, and were incubated at 37° C. CD was measured at indicated intervals with t=0 being immediately after the peptide was reconstituted. Measurements were on a Jasco J-720 spectropolarimeter (Easton, Md.), equipped with a model CTC-344 circular temperature control system (Neslab Inc., Newington, N.H.), at final protein concentration of 0.15 mg/ml in a cell with 0.1 cm path length. The spectra were recorded at 1 nm intervals over the wavelength range of 190-260 nm at 15° C. Results were expressed as molar ellipticity in units of deg-cm^2-dmol^−1, and the data were analyzed by the Lincomb, convex constraints and neural network algorithms to obtain percentages of different types of secondary structures using Softsec software (Softwood Inc., PA.) (Perczel et al., “Analysis of Circular Dichroism Spectrum of Proteins Using the Convex Constraint Algorithm,” Anal. Biochem. 203:83-93 (1992); Manavalan et al., “Variable Selection Method Improves the Prediction of Protein Secondary Structure from Circular Dichroism,” Anal. Biochem. 167:76-85 (1987); Toumadje et al., “Extending CD Spectra of Proteins to 168nm Improves the Analysis for Secondary Structures,” Anal. Biochem. 200:321-331 (1992); Sreerma et al., “A Self-consistent Method for the Analysis of Protein Secondary Structure from Circular Dichroism,” Anal. Biochem. 209:32-44 (1993); which are hereby incorporated by reference in their entirety). […]

The nature of data set [2]: Thioflavin-T assay of the peptides' own amyloid fibril formation. The class given is physicochemical. The conditions noted are these: 100 μmol/L peptide, 37° C. The source says: The fibrillogenic potential of Aβ12-28 and Aβ12-28P was investigated using a Thioflavin-T assay according to previously published methods (Wisniewski et al., “Acceleration of Alzheimer's Fibril Formation by Apolipoprotein E in vitro,” Am. J. Pathol. 145:1030-1035 (1994); Castano et al., “Fibrillogenesis in Alzheimer's Disease of Amyloid Beta Peptides and Apolipoprotein E,” Biochem. J. 306:599-604 (1995); which are hereby incorporated by reference in their entirety). […] Aβ12-28 and Aβ12-28P used for these experiments were both synthesized from D-amino acids to avoid effect of different racemic conformers on the fibril formation. […] Samples containing 15 μg of incubated peptides were taken at indicated intervals and fluorescence was measured as previously described in a Perkin-Elmer LS-50B fluorescence spectrophotometer (Perkin Elmer Instruments, Shelton, Conn.) (Wisniewski et al., “Acceleration of Alzheimer's Fibril Formation by Apolipoprotein E in vitro,” Am. J. Pathol. 145:1030-1035 (1994); Golabek et al., “The Interaction Between Apolipoprotein E and Alzheimer's Amyloid β-peptide is Dependent on β-peptide Conformation,” J. Biol. Chem. 271:10602-10606 (1996); which are hereby incorporated by reference in their entirety). […]
None of the HFIP treated peptides were fibrillar at time=0 as assessed by Thioflavin-T assay.

A further data set relates to Aβ1-42. Description: Aβ1-42 toxicity in SK-N-SH cells with peptide added without apoE, MTT assay. The format is cell-based, human. How it is done:
as §1, §2
A general note: Formazan colour is commonly taken as a measure of viable cells.

Setting [3] is: CD immediately after reconstitution, 5 mmol/L Tris pH 7.0.

Structures are written as SMILES. “Also recorded” adds a separate entry of the source.

Regarding `CC(=O)N[C@@H](C(=O)N[C@H](Cc1c[nH]cn1)C(=O)N[C@H](Cc1c[nH]cn1)C(=O)N[C@H](CCC(N)=O)C(=O)N[C@H](CCCCN)C(=O)N[C@H](CC(C)C)C(=O)N[C@@H](C(=O)N[C@H](Cc1ccccc1)C(=O)N[C@H](Cc1ccccc1)C(=O)N[C@H](C)C(=O)N[C@H](CCC(=O)O)C(=O)N[C@H](CC(=O)O)C(=O)N[C@@H](C(=O)NCC(=O)N[C@H](CO)C(=O)N[C@H](CC(N)=O)C(=O)N[C@H](CCCCN)C(N)=O)C(C)C)C(C)C)C(C)C` [Aβ12-28, reference compound], the “rescue of cell viability from apoE4-enhanced Aβ1-42 toxicity” value on apoE4 is on record as “significant rescue of the cell viability; also recorded: could be neutralized”. Moreover, in data set [1] (CD at time=0), the β-sheet content is reported as 2%. For the same compound, in data set [1] (setting [3]), the “random coil, share of the total protein structure” value is listed as 57% and the “∝-helix, share of the total protein structure” value was 41%. Besides, the “day when fluorescence levels reached a plateau” value in data set [2] was 6 days. Further, the “fibril formation (Thioflavin-T fluorescence)” value in data set [2] (up to 10 days) was “formed a small amount of fibrils; also recorded: modest ability”. Further, in the data set with Aβ1-42 (10 μmol/L Aβ1-42 with 10 μmol/L peptide), the “cell viability, Aβ1-42 incubated with peptide” value is on record as “Much more striking improvement in cell viability”. Moreover, in the data set on Aβ1-42 (Aβ1-42 100 μmol/L, peptide 0.5 μmol/L, time not stated), the “cell viability, peptide added to Aβ1-42 without apoE” value was “could not be demonstrated; also recorded: did not produced significant improvement in cell viability”.

The values are drawn from US7632816B2, “Treatment of Alzheimer amyloid deposition” (New York University, priority 2003, dated 2009).
